Values quoted from earlier work in patent US11517561B2, “Macrocycle and composition comprising thereof” (Shenzhen TargetRx, Inc., priority 2017, dated 2022).

Conditions: patients treated with crizotinib

SMILES: C[C@@H](Oc1cc(-c2cnn(C3CCNCC3)c2)cnc1N)c1c(Cl)ccc(F)c1Cl [Crizotinib]
- 3-4 level of hepatic aminotransferase increase, share of cases: 16%
